The nature of series [1]: AKG concentration in plasma of young pigs after AKG or FeSO4/AKG infusion to the duodenum or pelvic intestine. Type of series: in vivo. How it is done:
(§1) Investigations were performed on 3 piglets of the Swedish race Landrace weighting 30-35 kg. Animals originated from the university herd (Swedish Agricultural University, Dept. of Agricultural Biosystems and Technology, Lund). Young pigs were fed 2 times a day at the same time (9:00-10:00 a.m. and 3:00-4:00 p.m.) with a standard fodder (Vaxfor, Lantmanen, Sweden) with a daily dose 50 g/kg body weight. They were watered ad libitum. Animals were held separately in boxes with automatically regulated 12 hour's periods of day and night.
(§2) Sterile catheters and T-fistulas used in the experience were made of silicone tubes with maintained medical standards (Dow Cornning). Piglets were starved for 9-12 hours before the operation. Before the operation animals received a sedative drug—azoperone (Stresnil, 2 mg/kg body weight). Then the inhalation induction of general anaesthesia was performed (Fluothan 0.5-1.5 vol %). […] With the catheters inserted to the portal vein and the common carotid-artery the blood samples for later analyses were collected.
Two incisions were done: one 10-15 cm close to the right hunger fossa, second 2-3 cm between the brachial joint and the angle of the mandible. Duodenal fistula was placed behind the opening of the pancreatic duct to the duodenum. Pelvic T-fistula (int. diameter 3.18 mm and ext. diameter 4.64 mm—both fistulas) was introduced to the pelvic intestine at the end of the caeco-iliac ligament.
The catheter to the portal vein (int. diameter 0.64 mm and ext. diameter 1.19 mm) was introduced through the liver and fixed with several sutures (0-2 Catgut, Ethicon, England). The catheter placed in portal vein and both intestinal fistulas were brought out the body in the line of incision. After dissection of zygomatic vein the catheter was introduced in the cardiac direction on the depth of 7 cm. The vein was closed with the double ligature (0-3 silicone-, Ethicon, England) and brought outside the body with the surgical needle in the dorsal part of the neck. The abdomen and the neck wounds were closed with two layers of sutures: the peritoneum (only in the abdomen wound) and muscles were closed with twisted suture (0-0 Catgut , Ethicon), the skin was closed with the interrupted sutures (Suturamid 2-0, Ethicon). After operation young pigs were placed in separate boxes. During 5 postoperative days animals were fed twice a day, they received water ad libitum. The operation was performed by the skilled surgeon in accordance with surgical techniques.
Before infusion animals were starved. The daily dose of food was given during evening feeding at 3:00 p.m. All infusions were started at 9:00 a.m. Blood samples were taken 30 minutes before and 15, 30, 60 and 120 minutes after the infusion. 2. Infusions composition.

The conditions of series [2]: 4 volunteers; 1 litre of 10% AKG-soda salt solution orally after 200 mg zinc sulphate, vs glucose/NaCl.
For series [3] the following is noted: rats; MnCl2 with AKG-soda salt 0.5 g/kg body weight; back part of jejunum; bile and liver Mn.
For series [4] the following is noted: 4 volunteers; 1 litre of 10% AKG-soda salt solution orally after iron formate 200 mg, vs glucose/NaCl.
The nature of series [5]: Iron concentration in plasma of young pigs after FeSO4 or FeSO4/AKG infusion to the duodenum or pelvic intestine. Type of series: in vivo. Conditions: AKG administered enterally with FeSO4. The method, then: as §1, §2
Two incisions were done: one 10-15 cm close to the right hunger fossa, second 2-3 cm between the brachial joint and the angle of the mandible. Duodenal fistula was placed behind the opening of the pancreatic duct to the duodenum. […]

Marks after values point to notes of the source that are not given here.

Take `O=C(O)CCC(=O)C(=O)O` [AKG, Alpha-ketoglutarate acid]: the “AKG concentration in plasma” value in series [1] (infusion to pelvic intestine, portal vein, 15 min) is reported as 5.33 ± 2.48^b μg/l; in series [1] (infusion to pelvic intestine, portal vein, 30 min), 4.06 ± 2.55^b μg/l; in series [1] (infusion to pelvic intestine, portal vein, 60 min), 4.18 ± 0.63^b μg/l; in series [1] (infusion to pelvic intestine, portal vein, 120 min), 4.05 ± 0.16^b μg/l; in series [1] (infusion to pelvic intestine, portal vein, -30 min (before infusion)) it was 3.80 ± 2.57^b μg/l; in series [1] (infusion to pelvic intestine, zygomatic vein, 15 min) it was 2.96 ± 0.29^b μg/l. Also, the “AKG concentration in plasma” value was 2.55 ± 1.26^b μg/l in series [1] (infusion to pelvic intestine, zygomatic vein, 30 min); 2.58 ± 0.26^b μg/l in series [1] (infusion to pelvic intestine, zygomatic vein, 60 min); 2.60 ± 0.73^b μg/l in series [1] (infusion to pelvic intestine, zygomatic vein, 120 min); 1.47 ± 0.65^a μg/l in series [1] (infusion to pelvic intestine, zygomatic vein, -30 min (before infusion)); 28.62 ± 2.84^f μg/l in series [1] (infusion to the duodenum, portal vein, 15 min); 22.86 ± 4.08^f μg/l in series [1] (infusion to the duodenum, portal vein, 30 min). Also, the “AKG concentration in plasma” value was 13.53 ± 3.04^e μg/l in series [1] (infusion to the duodenum, portal vein, 60 min); 11.11 ± 6.70^ce μg/l in series [1] (infusion to the duodenum, portal vein, 120 min); 3.38 ± 0.54^b μg/l in series [1] (infusion to the duodenum, portal vein, -30 min (before infusion)); 11.32 ± 6.94^d μg/l in series [1] (infusion to the duodenum, zygomatic vein, 15 min); 13.62 ± 3.91^d μg/l in series [1] (infusion to the duodenum, zygomatic vein, 30 min); 7.72 ± 2.69^cb μg/l in series [1] (infusion to the duodenum, zygomatic vein, 60 min). For the same compound, the “AKG concentration in plasma” value is 4.82 ± 3.39^b μg/l in series [1] (infusion to the duodenum, zygomatic vein, 120 min) and 1.87 ± 0.64^a μg/l in series [1] (infusion to the duodenum, zygomatic vein, -30 min (before infusion)). Also, in series [2], the “effect on quantitative absorption of Zn2+ ions from the alimentary canal into the blood” value is “increases quantitative absorption of Fe2+ and Zn2+ ions from the alimentary canal into the blood”. In addition, the “effect on absorption of manganese (Mn) from the intestine” value in series [3] was “increases the absorption of the manganese (Mn) from the back part of jejunum”. Also, the “effect on quantitative absorption of Fe2+ ions from the alimentary canal into the blood” value in series [4] is “increases quantitative absorption of Fe2+ and Zn2+ ions from the alimentary canal into the blood”. Moreover, the “effect on iron absorption from the intestine into the blood” value in series [5] is on record as “significantly increases iron absorption from the intestine into the blood”.

The values above are taken from US20090238895A1, “NUTRITIONAL AND/OR PHARMACEUTICAL PREPARATION FOR USE IN PROPHYLAXIS AND TREATMENT OF DISTURBANCES IN MICROELEMENTS ABSORPTION FROM THE ALIMENTARY CANAL” (priority 2004, published 2009).
